Among the data in US6916822B2, “Phenoxyalkylamine derivatives useful as opioid δ receptor agonists” (Meiji Seika Kaisha, Ltd., priority 2000, dated 2005) are Ki values, retold here.

Molecules are shown by their SMILES.

The experiment concerns the target T1, opioid δ receptor (Rattus norvegicus, UniProt P33533).
T1 construct: A membrane fraction of opioid δ receptor was prepared from the rat forebrain; from tissue; host or cells: rat forebrain membrane fraction
As to the kind of experiment: Binding affinity for opioid δ receptor ([3H]-Naltrindole binding experiment). To be noted: membrane fraction from rat forebrain; [3H]-Naltrindole 1 nM; 25° C., 90 minutes; Ki calculated from IC50 by Cheng-Prusoff equation.

The term Ki denotes the equilibrium dissociation constant of an inhibitor or competing ligand from its target.

With `CC(C)N(C(=O)c1ccc(Cc2ccccc2OCCN2CCC3(CC2)C(=O)NCN3c2ccccc2)cc1)C(C)C` [Example 32, 8-[2-[2-(4-Diisopropylcarbamoylbenzyl)phenoxy]ethyl]-1-phenyl-1,3,8-triazaspiro[4,5]decan-4-one], the Ki was 0.517 µM.

As for `CCN(CC)C(=O)c1ccc(Cc2ccccc2OCCN2CCC3(CC2)C(=O)N(C)CN3c2ccccc2)cc1` [Example 36, 8-[2-[2-(4-Diethylcarbamoylbenzyl)phenoxy]ethyl]-3-methyl-1-phenyl-1,3,8-triazaspiro[4,5]decan-4-one], the Ki is 0.24 µM.

As to `CCC(C)C(=O)c1ccc(Cc2ccccc2OCCN2CCC(n3c(CO)nc4ccccc43)CC2)cc1` (stereo not drawn) [Example 110, 4-(2-Hydroxymethyl-1H-benzimidazol-1-yl)-1-[2-[2-[4-(2-methylbutyryl)benzyl]phenoxy]ethyl]piperidine], the Ki was 0.088 µM.

As for `O=C(c1ccc(Cc2ccccc2OCCN2CCC(n3c(=O)[nH]c4ccccc43)CC2)cc1)N1CCCC1` [Example 15, 4-(1,3-Dihydro-2H-benzimidazol-2-on-1-yl)-1-[2-[2-(4-pyrrolidinocarbonyl-benzyl)phenoxy]ethyl]piperidine], the Ki was 0.281 µM.

In the case of `CCN(CC)C(=O)c1ccc(Cc2ccccc2OCCN2CCC(C(C)=O)(c3ccccc3)CC2)cc1` [Example 49, 4-Acetyl-1-[2-[2-(4-diethylcarbamoylbenzyl)phenoxy]ethyl]-4-phenylpiperidine], the Ki is 0.943 µM.

As to `CC(C)COC(=O)c1ccc(Cc2ccccc2OCCN2CCC(n3c(CO)nc4ccccc43)CC2)cc1` [Example 103, 1-[2-[2-(4-Isobutyloxycarbonylbenzyl)phenoxy]ethyl]-4-(2-hydroxymethyl-1H-benzimidazol-1-yl)piperidine], the Ki was 0.073 µM.
